Paper PMC2941209 (Synapse (New York, N.Y.), 2010)

By UniProt entry, the sequences of proteins in these tests, tags left out.
UniProt P31652, whole entry: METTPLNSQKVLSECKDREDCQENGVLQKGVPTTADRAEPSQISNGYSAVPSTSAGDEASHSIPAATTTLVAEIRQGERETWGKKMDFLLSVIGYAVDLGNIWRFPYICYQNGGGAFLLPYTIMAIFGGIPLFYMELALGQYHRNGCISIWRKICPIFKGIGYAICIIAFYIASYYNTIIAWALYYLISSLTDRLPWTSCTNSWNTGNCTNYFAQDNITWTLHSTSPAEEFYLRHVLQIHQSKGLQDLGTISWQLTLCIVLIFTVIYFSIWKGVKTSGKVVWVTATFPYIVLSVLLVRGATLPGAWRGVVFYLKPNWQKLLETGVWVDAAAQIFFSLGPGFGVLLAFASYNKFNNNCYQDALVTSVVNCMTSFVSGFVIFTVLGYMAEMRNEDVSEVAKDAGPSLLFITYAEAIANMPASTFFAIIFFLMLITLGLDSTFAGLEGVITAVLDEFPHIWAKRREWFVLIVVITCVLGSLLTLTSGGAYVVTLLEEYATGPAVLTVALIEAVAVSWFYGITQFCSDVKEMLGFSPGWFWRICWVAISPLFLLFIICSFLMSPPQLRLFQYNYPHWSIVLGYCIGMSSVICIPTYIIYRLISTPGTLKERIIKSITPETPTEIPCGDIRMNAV

Experiments:
[1] = molecular target: T1, SERT (Rattus norvegicus, UniProt P31652); assay: [3H]5-HT release assay
[2] = molecular target: T1, SERT; assay: [3H]5-HT uptake inhibition assay; format: biochemical
[3] = 1 μM test compound, substrate MDMA

CC(N)Cc1c[nH]c2ccc(OCc3cccs3)cc12 (stereo not drawn) [α-methyl-5-(2-thienylmethoxy)-1H-indole-3-ethanamine]
effect on EMAX of MDMA-induced [3H]5-HT release [1, 3]: without altering the EMAX values
rightward shift of the MDMA dose-response curve ([3H]5-HT release) [1, 3]: 3–4 fold
Ke value lower than IC50 for inhibiting [3H]5-HT uptake (fold lower) ([1]; substrate not given): 4.6 fold
IC50 [2]: 1.86 µM

(+)-fenfluramine
EMAX substrate-induced [3H]5-HT release, CONTROL ([1]; substrate alone (control), 100% = release by 100 μM tyramine, ±SD): 100±6%
